Data: patent EP0938471B1, “THE PREPARATION AND USE OF ORTHO-SULFONAMIDO ARYL HYDROXAMIC ACIDS AS MATRIX METALLOPROTEINASE AND TACE INHIBITORS” (priority 1996, dated 1998)

Chains of the proteins cited; added tags and fusions are not shown. Residues count along the entry.
UniProt P14780, 94-707: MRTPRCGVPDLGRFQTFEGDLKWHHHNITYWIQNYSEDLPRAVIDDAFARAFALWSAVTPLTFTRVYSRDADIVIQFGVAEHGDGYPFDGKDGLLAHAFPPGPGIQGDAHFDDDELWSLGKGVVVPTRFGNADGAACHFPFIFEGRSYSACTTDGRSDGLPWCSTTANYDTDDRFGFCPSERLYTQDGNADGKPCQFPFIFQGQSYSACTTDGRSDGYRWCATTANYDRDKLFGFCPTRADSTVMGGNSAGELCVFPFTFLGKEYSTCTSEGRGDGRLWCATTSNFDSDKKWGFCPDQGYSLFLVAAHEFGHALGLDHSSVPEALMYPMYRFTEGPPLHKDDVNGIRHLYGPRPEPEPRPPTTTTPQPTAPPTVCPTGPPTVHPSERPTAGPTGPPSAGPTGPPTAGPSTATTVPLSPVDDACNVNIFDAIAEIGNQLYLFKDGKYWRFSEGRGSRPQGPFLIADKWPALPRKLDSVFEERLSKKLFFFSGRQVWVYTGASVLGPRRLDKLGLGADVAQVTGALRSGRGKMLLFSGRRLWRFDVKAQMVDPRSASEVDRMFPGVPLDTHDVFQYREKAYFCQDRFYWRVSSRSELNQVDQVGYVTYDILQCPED
UniProt P78536, 215-824: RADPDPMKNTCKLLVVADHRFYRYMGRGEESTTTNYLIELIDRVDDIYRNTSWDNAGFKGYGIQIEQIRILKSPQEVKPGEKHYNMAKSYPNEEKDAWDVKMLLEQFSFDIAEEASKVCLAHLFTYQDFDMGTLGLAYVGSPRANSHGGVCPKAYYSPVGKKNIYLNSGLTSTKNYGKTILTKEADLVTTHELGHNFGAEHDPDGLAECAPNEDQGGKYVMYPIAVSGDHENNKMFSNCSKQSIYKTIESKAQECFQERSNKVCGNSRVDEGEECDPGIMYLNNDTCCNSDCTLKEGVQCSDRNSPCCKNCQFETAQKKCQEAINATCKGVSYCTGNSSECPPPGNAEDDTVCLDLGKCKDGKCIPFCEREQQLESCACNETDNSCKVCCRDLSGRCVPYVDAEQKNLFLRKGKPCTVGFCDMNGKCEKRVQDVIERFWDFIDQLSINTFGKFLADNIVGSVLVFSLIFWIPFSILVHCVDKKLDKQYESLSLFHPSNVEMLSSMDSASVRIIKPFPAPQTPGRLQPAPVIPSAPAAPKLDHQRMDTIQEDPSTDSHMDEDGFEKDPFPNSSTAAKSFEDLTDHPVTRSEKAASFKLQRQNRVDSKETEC

Columns and labels:
Assay type in all cases: biochemical
MMP-13 = MMP-13 (Homo sapiens, UniProt P45452); experiment: MMP-13 inhibition (thiopeptide or fluorescent peptide substrate assay); conditions: read-out: MMP-13 IC50
MMP-1 = target: T1, MMP-1 (Homo sapiens, UniProt P03956); experiment: MMP-1 inhibition (thiopeptide or fluorescent peptide substrate assay)
T1 sequence (P03956 100-469): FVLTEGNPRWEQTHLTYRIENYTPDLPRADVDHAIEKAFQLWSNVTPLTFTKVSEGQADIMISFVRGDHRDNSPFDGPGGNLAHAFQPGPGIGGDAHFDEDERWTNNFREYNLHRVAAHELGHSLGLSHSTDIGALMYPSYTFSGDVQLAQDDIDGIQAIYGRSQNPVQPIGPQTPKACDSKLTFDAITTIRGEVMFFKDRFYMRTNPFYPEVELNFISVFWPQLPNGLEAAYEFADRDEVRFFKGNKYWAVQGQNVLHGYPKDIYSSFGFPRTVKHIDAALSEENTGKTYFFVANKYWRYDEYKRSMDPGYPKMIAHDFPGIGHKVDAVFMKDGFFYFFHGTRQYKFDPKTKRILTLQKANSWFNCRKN

MMP-9 = MMP-9 (Homo sapiens, UniProt P14780); experiment: MMP-9 inhibition (thiopeptide or fluorescent peptide substrate assay)
TACE = TACE (Homo sapiens, UniProt P78536); experiment: TACE inhibition (fluorescent peptidyl substrate)

Compound | pIC50 (MMP-13) | pIC50 (MMP-9) | further results
COc1ccc(S(=O)(=O)N(Cc2cccnc2)c2c(C)cc(-c3ccsc3)cc2C(=O)NO)cc1 [Example 398, N-Hydroxy-2-[(4-methoxy-benzenesulfonyl)-pyridin-3-ylmethyl-amino]-3-methyl-5-thiophen-3-yl-benzamide hydrochloride salt] | 8.43 |  | 
COc1ccc(S(=O)(=O)N(Cc2ccc(N3CCN(C)CC3)cc2)c2c(C)cccc2C(=O)NO)cc1 [Example 382, N-Hydroxy-2-{(4-methoxy-benzenesulfonyl)-[4-(4-methyl-piperazin-1-yl)-benzyl]-amino}-3-methyl-benzamide] |  |  | pIC50 (MMP-1): 6.85
COc1ccc(S(=O)(=O)N(Cc2ccccc2)c2c(C)cc(C(=O)NO)cc2C(=O)NO)cc1 [Example 272, 4-[Benzyl-(4-methoxy-benzenesulfonyl)-amino]-N(1),N(3)-dihydroxy-5-methyl-isophthalamide di-sodium salt] | 8.22 | 9.30 | pIC50 (MMP-1; read-out: MMP-1 IC50): 7.18; pIC50 (TACE): 6.51
COc1ccc(S(=O)(=O)N(Cc2cccnc2)c2c(C)cccc2C(=O)NO)cc1 [Example 61, N-Hydroxy-2-[(4-methoxy-benzenesulfonyl)-pyridin-3-ylmethyl-amino]-3-methyl-benzamide] |  | 7.47 | 
COc1ccc(S(=O)(=O)N(Cc2cccnc2)c2c(C)cc(-c3ccccc3)cc2C(=O)NO)cc1 [Example 397, 4-[(4-Methoxy-benzenesulfonyl)-pyridin-3-ylmethyl-amino]-5-methyl-biphenyl-3-carboxylic acid hydroxyamide hydrochloride salt] | 8.43 |  | 
COc1ccc(S(=O)(=O)N(Cc2cccnc2)c2c(C)cccc2C(=O)NO)cc1 [Example 83, N-Hydroxy-2-[(4-methoxy-benzenesulfonyl)-pyridin-3-ylmethyl-amino]-3-methyl-benzamide] | 7.49 | 7.47 | 

pIC50: −log10 of the molar value. Where a name gives a salt, the structure may show the parent alone. Read-outs that look alike come from different tables or passages of the source.
